Experimental data published in patent US12257282B2, “Mixtures and formulations” (CAMURUS AB, priority 2016, dated 2025).

Settings: 0.38 wt % EDTA in EtOH/PG (1/1 wt/wt)

With Tris(hydroxymethyl)aminomethane the “required minimum amount of alkylamine needed to solubilize EDTA” value was “about 5 mol per 1 mol of EDTA”.
